The source of these data is PubChem BioAssay AID1554 (Broad Institute, 2009).

The list shows a part of the results, in another mix than the full data. Some of these compounds have results that are not shown, active ones among them. The source made the active and inactive calls. Cut-off read from the data, not from the text of the source: active = inhibition above about 50%; inconclusive = no clear call, values can overlap the other calls; inactive = below that.

The nature of the assay: PubChem AID 1554. The note with it: BJeLR (HRASV12) viability, CellTiter-Glo ATP luminescence, 48 h; active compounds read high; concentration not given here. (ATP-based viability assays read luminescence as a measure of living cells.)
Turning to `O=C(OC1CN2CCC1CC2)C(CO)(c1ccccc1)c1ccccc1` (centres undefined), the inhibition is inactive: 2.17%. Take `CN(C)c1cccc(C(=O)NCC2(N(C)C)CCCCC2)c1`: the inhibition is inactive: -4.01%. Regarding `CC(C)Oc1ccc(C(=O)NCC2(N(C)C)CCCCC2)cc1`, the inhibition is inactive: -3.94%. Then `COc1ccc(Br)c(C(=O)NCC2(N3CCCCC3)CCCCC2)c1`, with inactive: -9.07%. Then `COc1cc(C(=O)NCC2(N(C)C)CCCCC2)c([N+](=O)[O-])cc1OC`, with inactive: 10%; and `CN(C)C1(CNC(=O)c2ccc(Br)cc2)CCCCC1`, with inactive: -0.0676%; and `O=C(NCC1(N2CCCCC2)CCCCC1)c1cccc(Cl)c1`, with inactive: 4.66%. Then `COc1cccc(C(=O)NCC2(N3CCCCC3)CCCCC2)c1`, with inactive: -2.39%; and `COc1ccc(Cl)cc1C(=O)NCC1(N(C)C)CCCCC1`, with inactive: -10.4%. Turning to `Cc1ccccc1C(=O)NCC1(N2CCCCC2)CCCCC1`, the inhibition is inactive: -2.35%. As for `CN(C)c1ccc(C(=O)NCC2(N(C)C)CCCCC2)cc1`, the figure is inactive: -3.23%; as for `CN(C)C1CCCC1OC(=O)C(O)(c1ccccc1)c1ccccc1` (centres undefined), inactive: -17.4%; as for `CCN1CCCC(OC(=O)C2(O)c3ccccc3C=Cc3ccccc32)C1` (centres undefined), inactive: 2.16%.

As for `Cc1cc(C(=O)NCC2(N3CCCCC3)CCCCC2)ccc1[N+](=O)[O-]`, the inhibition is inactive: 2.11%. As for `O=C(NCC1(N2CCCCC2)CCCCC1)c1cccc(Br)c1`, the figure is inactive: -2.44%; as for `COc1ccc(C(=O)NCC2(N(C)C)CCCCC2)cc1`, inactive: -7.15%; as for `C=CCN1CCN(CCOC(=O)C(O)(c2ccccc2)c2ccccc2)CC1`, inactive: 3.97%.

Consider `O=C(NCC1(N2CCCCC2)CCCCC1)c1cc(F)c(F)cc1Cl`, for which the inhibition is inactive: 6.41%. As for `CN1[C@@H]2CC[C@H]1CC(OC(=O)C(O)(c1ccccc1)c1ccccc1)C2` (some centres undefined), the figure is inactive: -5.03%; as for `O=C(NCC1(N2CCCCC2)CCCCC1)c1cc([N+](=O)[O-])ccc1Cl`, inactive: 4.11%.

Regarding `Cc1ccc(C(=O)NCC2(N3CCCCC3)CCCCC2)cc1`, the inhibition is inactive: 5.35%. As for `CC(C)N1C(=O)CC2(CCN(CCOC(=O)C(O)(c3ccccc3)c3ccccc3)CC2)C1=O`, the figure is inactive: -7.74%; as for `CCN(CC)CC(C)C(C)OC(=O)C(O)(c1ccccc1)c1ccccc1` (centres undefined), inactive: 5.61%; as for `COc1cc(SC)ccc1C(=O)NCC1(N(C)C)CCCCC1`, inactive: -4.09%.

As a reminder, the inhibition is the change of the read-out against control, counted positive when it falls.
